Laboratory results published in patent US20050227956A1, “Control of mold growth on wood” (priority 2004, published 2005).

How the values were obtained:
Experiment in all cases: Six-well plate screening test
Format in all cases: cell-based
[1] = system: Penicillium funiculosum
[2] = system: Stachybotrus charatrum
[3] = system: Aspergillus niger
[4] = system: Cladosporium cladosporioides
[5] = system: Trichoderma virens
[6] = system: Aureobasidium pullulans

iron(III) dimethyldithiocarbamate [Ferbam]
Minimum Inhibitory Concentrations (MIC) [1]: >100 mg/kg | Minimum Inhibitory Concentrations (MIC) [2]: 50 mg/kg | Minimum Inhibitory Concentrations (MIC) [3]: 100 mg/kg | Minimum Inhibitory Concentrations (MIC) [4]: 100 mg/kg | Minimum Inhibitory Concentrations (MIC) [5]: >100 mg/kg | Minimum Inhibitory Concentrations (MIC) [6]: 100 mg/kg
